In PubChem BioAssay AID1135 (Sanford-Burnham Center for Chemical Genomics, 2008):
The list shows a part of the results, in another mix than the full data. Calls of active or inactive are those of the source.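 Rule for the calls: active = over 50% inhibition of tissue-nonspecific alkaline phosphatase at 20 µM in the single-dose screen; inactive = the rest.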

Protein sequences, listed by entry. Tags and fused reporters are not part of them.
UniProt P05186, whole entry: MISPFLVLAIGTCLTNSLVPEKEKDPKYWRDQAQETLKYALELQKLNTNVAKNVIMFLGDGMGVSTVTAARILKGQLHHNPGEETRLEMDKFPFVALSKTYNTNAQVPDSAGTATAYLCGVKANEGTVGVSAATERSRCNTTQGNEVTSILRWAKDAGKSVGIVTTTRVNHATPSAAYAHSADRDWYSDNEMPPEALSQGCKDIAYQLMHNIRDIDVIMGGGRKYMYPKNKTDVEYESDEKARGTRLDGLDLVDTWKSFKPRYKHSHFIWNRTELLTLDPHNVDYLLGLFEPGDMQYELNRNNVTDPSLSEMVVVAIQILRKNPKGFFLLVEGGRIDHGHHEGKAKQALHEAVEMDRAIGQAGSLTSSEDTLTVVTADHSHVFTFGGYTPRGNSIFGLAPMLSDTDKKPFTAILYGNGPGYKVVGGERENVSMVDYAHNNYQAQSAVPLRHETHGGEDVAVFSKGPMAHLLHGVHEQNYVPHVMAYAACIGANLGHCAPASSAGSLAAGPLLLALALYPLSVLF

These compounds were tested against Alkaline phosphatase, tissue-nonspecific isozyme (Homo sapiens) (UniProt P05186) (assay: human TNAP enzyme inhibitors, primary screen, biochemical, luminescent, high phosphate acceptor level, uHTS (AID 1135;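 note: plate controls were DMSO wells for no effect and EDTA-quenched wells as full inhibition for full effect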)). Conditions: purified TNAP, CDP-star luminescence, 1 M DEA; at 20 µM; hits give high values.
With `Cc1cc(C)cc(OP(C)(=O)Nc2ccc(C)cc2C)c1` (centres undefined) the inhibition was inactive: 1.5%.
`CCOC(=O)c1ccc(NP(C)(=O)Oc2cc(C)cc(C)c2)cc1` (centres undefined) was tested, and the inhibition was inactive: -2.2%.
For `Cc1cc(C)cc(OP(C)(=O)Nc2ccccn2)c1` (centres undefined), the inhibition was inactive: -3%.
For `Cc1ccc(C)c(NP(C)(=O)Oc2ccccc2)c1` (centres undefined), the inhibition was inactive: -1.5%.
For `CC1=NCCc2c1[nH]c1ccccc21.O=[N+]([O-])c1cc([N+](=O)[O-])c(O)c([N+](=O)[O-])c1`, the inhibition was inactive: 5.3%.
With `CN1CCCCC1COC(=O)C1(O)c2ccccc2CCc2ccccc21` (centres undefined) the inhibition was inactive: 1.4%.
In the case of `COc1ccccc1OP(C)(=O)Nc1c(C)cccc1C` (centres undefined), the inhibition is reported as inactive: 1.5%.
`CP(=O)(Nc1ccc(SC(F)(F)F)cc1)Oc1ccccc1` (centres undefined) was tested, and the inhibition was inactive: -1.4%.
In the case of `CCCOc1ccc(NP(C)(=O)Oc2ccc(Cl)cc2)cc1` (centres undefined), the inhibition is reported as inactive: -2%.
`O=[N+]([O-])c1cc([N+](=O)[O-])c(-n2nnc3ccccc32)c([N+](=O)[O-])c1` was tested, and the inhibition was inactive: -0.3%.
In the case of `Cc1nc2ccc3ccccc3c2s1.O=[N+]([O-])c1cc([N+](=O)[O-])c(O)c([N+](=O)[O-])c1`, the inhibition is reported as inactive: 3.4%.
For `Cc1cccc(C)c1OP(C)(=O)Nc1ccc(SC(F)(F)F)cc1` (centres undefined), the inhibition was inactive: 0.3%.
In the case of `CP(=O)(Oc1ccccc1)OC(c1ccccc1)C(F)(F)F` (centres undefined), the inhibition is reported as inactive: -0.4%.
`CP(=O)(NC(=O)Nc1ccccc1)Oc1ccccc1` (centres undefined) was tested, and the inhibition was inactive: -8%.
`Cc1cc(C)cc(OP(C)(=O)Nc2ccc(SC(F)(F)F)cc2)c1` (centres undefined) was tested, and the inhibition was inactive: -1.1%.
In the case of `CCOP(C)(=S)SCC(=O)NC(C)C(=O)O` (centres undefined), the inhibition is reported as inactive: -3.3%.
With `CCOC(=O)c1ccc(NP(C)(=O)Oc2ccc(OC)cc2)cc1` (centres undefined) the inhibition was inactive: -1.3%.
With `CP(=O)(Nc1ccccn1)Oc1ccc(Cl)cc1` (centres undefined) the inhibition was inactive: -4.6%.
For `CP(=S)(Nn1cnnc1)Oc1ccccc1` (centres undefined), the inhibition was inactive: -2.1%.
With `COc1ccccc1OP(C)(=O)Nc1ccccc1` (centres undefined) the inhibition was inactive: -5.7%.
In the case of `CP(=O)(Nc1ccccc1Br)Oc1ccccc1` (centres undefined), the inhibition is reported as inactive: -3.3%.
`CC(C)(C)c1ccc(OP(C)(=O)Nc2ccc(SC(F)(F)F)cc2)cc1` (centres undefined) was tested, and the inhibition was inactive: -4.4%.
In the case of `Cc1cccc(C)c1OP(C)(N)=O` (centres undefined), the inhibition is reported as inactive: -4.9%.
`O=[N+]([O-])c1ccc2c(c1)C=Nc1ccccc1O2` was tested, and the inhibition was inactive: 16.7%.
In the case of `CCOC(=O)c1ccc(NP(C)(=O)Oc2ccccc2)cc1` (centres undefined), the inhibition is reported as inactive: -3.9%.
With `COc1ccccc1OP(C)(=O)Nc1ccc(C)cc1` (centres undefined) the inhibition was inactive: -2.5%.
`Cc1ccc(NP(C)(=O)Oc2ccccc2)c(C)c1` (centres undefined) was tested, and the inhibition was inactive: -4.7%.
With `COc1ccccc1OP(C)(=O)Nc1cc(Cl)ccc1C` (centres undefined) the inhibition was inactive: 1.6%.
For `COc1ccc(OP(C)(=O)Nc2cccc(F)c2)cc1` (centres undefined), the inhibition was inactive: 1.1%.
With `Cc1cc(C)cc(OP(C)(N)=O)c1` (centres undefined) the inhibition was inactive: -7.7%.
In the case of `CCN(CC)CCCOC(=O)C(O)(c1ccccc1)c1ccccc1`, the inhibition is reported as inactive: -4.3%.
In the case of `CN(C)CCOC(=O)C(O)(c1ccccc1)C1CCCC1` (centres undefined), the inhibition is reported as inactive: -1.9%.
`COc1ccc(OP(C)(=O)Nc2ccccn2)cc1` (centres undefined) was tested, and the inhibition was inactive: -5.7%.
For `O=[N+]([O-])c1cc([N+](=O)[O-])c(Nc2ccccn2)c([N+](=O)[O-])c1`, the inhibition was inactive: 33.4%.
`Cc1c(NP(C)(=O)Oc2ccc(C(C)C)cc2)c(=O)n(-c2ccccc2)n1C` (centres undefined) was tested, and the inhibition was inactive: -6.8%.
With `CCc1ccc(OP(C)(=O)O)cc1` the inhibition was inactive: -1.5%.
With `CP(=O)(Nc1ccccn1)Oc1ccccc1` (centres undefined) the inhibition was inactive: 1.7%.
In the case of `COc1ccccc1OP(C)(=O)Nc1ccc(C)cc1C` (centres undefined), the inhibition is reported as inactive: -0.5%.
With `Cc1cc(C)cc(OP(C)(=O)Nc2cccc(C(F)(F)F)c2)c1` (centres undefined) the inhibition was inactive: -1.1%.
For `COc1ccc(OP(C)(=O)Nc2ccccc2Br)cc1` (centres undefined), the inhibition was inactive: -3.4%.
With `COc1ccccc1OP(C)(=O)Nc1ccc(C)c(C)c1` (centres undefined) the inhibition was inactive: 2%.
In the case of `Cc1nc2ccc3ccccc3c2o1.O=[N+]([O-])c1cc([N+](=O)[O-])c(O)c([N+](=O)[O-])c1`, the inhibition is reported as inactive: 2.7%.
In the case of `CP(=O)(OCCOc1ccccc1)OCCOc1ccccc1`, the inhibition is reported as inactive: -0.4%.
For `CP(=O)(Nc1ccc(Cl)cc1Cl)Oc1ccccc1` (centres undefined), the inhibition was inactive: -2.3%.
For `CP(=O)(OC12CC3CC(CC(C3)C1)C2)OC12CC3CC(CC(C3)C1)C2`, the inhibition was inactive: -1.1%.
In the case of `CCOC(=O)c1ccc(NP(C)(=O)Oc2ccc(Cl)cc2)cc1` (centres undefined), the inhibition is reported as inactive: 0.4%.
In the case of `CCN(CC)CC(O)COC(=O)C(O)(c1ccccc1)C1CCCCC1` (centres undefined), the inhibition is reported as inactive: -3.8%.
In the case of `COc1ccc(OP(C)(=O)Nc2ccc(Br)cc2)cc1` (centres undefined), the inhibition is reported as inactive: -7.8%.
In the case of `CP(=O)(Oc1ccccc1)N1CCOC1=O` (centres undefined), the inhibition is reported as inactive: -4.4%.
For `CCc1ccc(OP(C)(=O)Nc2cccnc2)cc1` (centres undefined), the inhibition was inactive: -1.8%.
`COc1ccccc1OP(C)(=O)Nc1c(C)n(C)n(-c2ccccc2)c1=O` (centres undefined) was tested, and the inhibition was inactive: -3.3%.
For `CP(=O)(Nc1ccc(Cl)cc1)Oc1ccc(F)cc1` (centres undefined), the inhibition was inactive: -7%.
For `CC(C)(C)c1ccc(OP(C)(=O)O)cc1`, the inhibition was inactive: 0.3%.
In the case of `COc1ccccc1OP(C)(=O)Nc1ccccc1Br` (centres undefined), the inhibition is reported as inactive: 1.5%.
In the case of `CN(C)C(=O)c1c([N+](=O)[O-])cc([N+](=O)[O-])cc1[N+](=O)[O-]`, the inhibition is reported as inactive: -0.4%.
`CCOP(C)(=S)SCC(=O)NC(C)(CC)C(=O)O` (centres undefined) was tested, and the inhibition was inactive: 0.3%.
For `CP(=O)(Nc1ccc2c(c1)OCCO2)Oc1ccccc1` (centres undefined), the inhibition was inactive: -0.9%.
In the case of `Cc1ccccc1NP(C)(=O)Nc1ccccc1C`, the inhibition is reported as inactive: -2.4%.
`COc1ccc(OP(C)(=O)Nc2cccc(Br)c2)cc1` (centres undefined) was tested, and the inhibition was inactive: -7.4%.
With `COc1ccc(NP(C)(=O)Oc2ccccc2OC)cc1` (centres undefined) the inhibition was inactive: -0.5%.
For `CN(C)CCOC(=O)C(O)(c1ccccc1)C1CCCCC1` (centres undefined), the inhibition was inactive: -0.2%.
In the case of `O=[N+]([O-])c1cc([N+](=O)[O-])c(NCC2CCS(=O)(=O)C2)c([N+](=O)[O-])c1` (centres undefined), the inhibition is reported as inactive: 7.4%.
`COc1ccc(OP(C)(=O)Nc2ccc(SC(F)(F)F)cc2)cc1` (centres undefined) was tested, and the inhibition was inactive: -9.3%.
For `CCOC(=O)c1ccc(NP(C)(=O)Oc2ccc(F)cc2)cc1` (centres undefined), the inhibition was inactive: -3.2%.
For `CCN(CC)CCCOC(=O)C(O)(c1ccccc1)C1CCCCC1` (centres undefined), the inhibition was inactive: 0.8%.
With `CP(=O)(Nc1ccccc1)Oc1ccc(F)cc1` (centres undefined) the inhibition was inactive: -3.9%.
In the case of `CC(C)c1ccc(OP(C)(=O)Nc2ccc(SC(F)(F)F)cc2)cc1` (centres undefined), the inhibition is reported as inactive: -1.7%.
`CP(=O)(Nc1ccccc1F)Oc1ccccc1` (centres undefined) was tested, and the inhibition was inactive: -8.7%.
For `O=C(OCCN1CCN(CCOCc2ccccc2)CC1)C(O)(c1ccccc1)c1ccccc1`, the inhibition was inactive: -4.4%.
